Results reported in the NIST ThermoML archive (doi:10.1016/j.fluid.2018.09.024).
Numbers after ± are expanded uncertainties.

Assay: activity coefficient (dimensionless); of the first substance listed, at infinite dilution; xn = mol fraction of the nth substance listed
Conditions: 101.33 kPa, Liquid, Chromatography, x1 = 0

Row | SMILES | activity coefficient (318.15 K) | activity coefficient (328.15 K) | activity coefficient (338.15 K) | activity coefficient (348.15 K) | activity coefficient (358.15 K) | activity coefficient (368.15 K) | activity coefficient (378.15 K)
1 | CCCCOCCCC [dibutyl ether] + CCCCCCCCCCCC[N+](C)(C)CCOc1ccccc1.O=S(=O)([N-]S(=O)(=O)C(F)(F)F)C(F)(F)F | 2.61 ± 0.18 | 2.68 ± 0.18 | 2.74 ± 0.19 | 2.81 ± 0.19 | 2.88 ± 0.2 | 2.94 ± 0.2 | 
2 | CCCCOCCCC [dibutyl ether] + CCCCCCCCCCCC[N+](C)(C)CCOc1ccccc1.N#C[N-]C#N |  | 4.66 ± 0.32 | 4.76 ± 0.32 | 4.85 ± 0.33 | 4.92 ± 0.34 | 4.99 ± 0.34 | 5.08 ± 0.35
